Source: patent publication US5387610A, “Peptide derivatives of collagenase inhibitor” (Research Corporation Technologies, Inc., priority 1992, dated 1995)
Where two headings read alike, the source gives them in different places.

The chains behind the UniProt entries cited, without tags or fusion partners. Residues count along the entry.
UniProt Q95JA4, 111-661 limits assumed: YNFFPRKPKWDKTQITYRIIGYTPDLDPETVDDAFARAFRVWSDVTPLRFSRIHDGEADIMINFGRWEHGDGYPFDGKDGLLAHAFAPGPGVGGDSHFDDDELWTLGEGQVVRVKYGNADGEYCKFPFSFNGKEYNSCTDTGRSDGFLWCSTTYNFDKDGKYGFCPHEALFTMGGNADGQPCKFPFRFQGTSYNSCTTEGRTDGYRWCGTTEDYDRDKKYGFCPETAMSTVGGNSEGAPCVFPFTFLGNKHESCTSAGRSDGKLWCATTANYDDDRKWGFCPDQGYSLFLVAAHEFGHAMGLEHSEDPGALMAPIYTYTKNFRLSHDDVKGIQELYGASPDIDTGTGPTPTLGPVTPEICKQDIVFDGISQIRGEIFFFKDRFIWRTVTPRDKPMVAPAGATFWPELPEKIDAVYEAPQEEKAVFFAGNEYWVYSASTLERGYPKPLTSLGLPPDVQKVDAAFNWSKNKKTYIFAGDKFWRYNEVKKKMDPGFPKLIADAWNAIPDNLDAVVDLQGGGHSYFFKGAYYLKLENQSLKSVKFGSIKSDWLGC
UniProt P03956, 100-469 limits assumed: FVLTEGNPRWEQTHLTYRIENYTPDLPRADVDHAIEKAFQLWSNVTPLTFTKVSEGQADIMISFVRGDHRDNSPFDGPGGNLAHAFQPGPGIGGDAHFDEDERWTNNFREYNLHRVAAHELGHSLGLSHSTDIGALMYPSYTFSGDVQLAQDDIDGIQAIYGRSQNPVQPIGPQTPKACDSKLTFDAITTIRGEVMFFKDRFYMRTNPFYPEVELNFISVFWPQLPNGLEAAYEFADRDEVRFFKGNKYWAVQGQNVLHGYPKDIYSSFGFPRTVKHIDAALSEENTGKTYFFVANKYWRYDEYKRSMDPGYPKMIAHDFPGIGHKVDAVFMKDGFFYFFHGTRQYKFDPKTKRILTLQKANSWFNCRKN
UniProt P21692, 100-469 limits assumed: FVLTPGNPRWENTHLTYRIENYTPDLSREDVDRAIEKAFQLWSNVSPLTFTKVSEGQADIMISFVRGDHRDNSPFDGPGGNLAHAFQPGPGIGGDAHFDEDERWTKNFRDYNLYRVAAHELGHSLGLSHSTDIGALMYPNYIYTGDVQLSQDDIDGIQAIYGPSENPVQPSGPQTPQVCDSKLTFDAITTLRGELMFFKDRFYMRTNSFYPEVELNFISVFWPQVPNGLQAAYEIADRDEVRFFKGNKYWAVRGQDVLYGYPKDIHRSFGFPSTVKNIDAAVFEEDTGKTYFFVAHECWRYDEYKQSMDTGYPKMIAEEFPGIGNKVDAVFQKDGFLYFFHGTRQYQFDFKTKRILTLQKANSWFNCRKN

Assays:
[1] = target: porcine synovial gelatinase (Sus scrofa, UniProt Q95JA4); experiment: Porcine synovial gelatinase with fluorogenic substrate FS-7 (PSG/FS-7); conditions: read-out: IC50 (μM) PSG/FS-7, substrate FS-7 10 μM, 37° C., pH 7.7, successive lines per compound = diastereomers, higher C18 mobility first, upper limit only for high affinity inhibitors
Protocol: (§1) Recombinant human fibroblast collagenase (rHFC) and porcine synovial gelatinase (PSG) were assayed at 37° C. by the procedure of Stack and Gray (1989). The fluorogenic metalloproteinase substrate Dnp-Pro-Leu-Gly-Leu-Trp-Ala-D-Arg-NH2 was dissolved at an initial concentration of 10 μM in 0.05M tris-HCl, 0.2M NaCl, 5 mM CaCl2, pH 7.7. Hydrolysis of the substrate at the Gly-Leu bond results in an increase in fluorescence that was monitored using an SLM-500C spectrofluorometer with excitation at 280 nm and emission at 346 nm. The reaction was initiated by addition of the enzyme; after determining the initial rate of substrate hydrolysis an aliquot of inhibitor was added and the inhibited rate redetermined. For lower affinity inhibitors (IC50>>[E0 ], where E0 is the enzyme concentration), inhibitor potencies were determined from plots of log (A0 /Ai-1) vs. log [Inhibitor], where A0 is the activity measured in the absence of inhibitor and Ai is that measured in the presence of inhibitor at concentration i (Ambrose et al., 1950). For high affinity inhibitors (IC50 =[E0 ]) only an upper limit of inhibitor potency could be estimated (Dixon and Webb, 1979).

[2] = target: Recombinant human fibroblast collagenase (Homo sapiens, UniProt P03956); experiment: Recombinant human fibroblast collagenase with fluorogenic substrate FS-7 (rHFC/FS-7); conditions: read-out: IC50 (μM) rHFC/FS-7, substrate FS-7 10 μM, 37° C., pH 7.7, successive lines per compound = diastereomers, higher C18 mobility first
Protocol: as §1

[3] = target: Porcine synovial collagenase (Sus scrofa, UniProt P21692); experiment: Porcine synovial collagenase activity with type I (calf skin) collagen, gel densitometry (PSC/CSC); conditions: read-out: IC50 (μM) PSC/CSC, acid-soluble calf skin collagen 0.8 μM, 35° C., pH 7.7, a range means 50% inhibition lay between the values, successive lines per compound = diastereomers, higher C18 mobility first
Protocol: Porcine synovial collagenase activity (PSC) was measured with type I collagen essentially as described by Darlak et al. (1990). Varying amounts of inhibitor were added to the acid-soluble calf skin collagen (0.8 μM) at 35° C. in 0.05M tris-HCl, 0.2M NaCl, 5 mM CaCl2, 0.25M glucose, pH 7.7. Collagen degradation was initiated by adding purified porcine synovial collagenase and the reactions were stopped by the addition of an equal volume of sample dilution buffer (Laemmli, 1970) followed by boiling for 2-3 min. Undegraded collagen was resolved from its degradation products by polyacrylamide slab gel electrophoresis as described by Laemmli (1970). The gels were fixed in isopropanol/acetic acid/water (100:40:300 v/v) and then stained with 1% Coomassie Blue R-250 in fixing solution. After destaining, the percentage of α1 chain converted to the corresponding TC fragment was estimated by densitometry using a Bio-Rad model 610 video densitometer. IC50 values were estimated from the dependence of the percent of collagen degraded on inhibitor concentration.

[4] = target: pig synovial collagenase (Sus scrofa, UniProt P21692); experiment: Pig synovial collagenase with fluorogenic substrate FS-7 (PSC/FS-7); conditions: read-out: IC50 (μM) PSC/FS-7, substrate Dnp-Pro-Leu-Gly-Leu-Trp-Ala-D-Arg-NH2, successive lines per compound = diastereomers, higher C18 mobility first
Protocol: [The source words this procedure for another target and reports this target under the same test.] as §1

[5] = diastereomer of higher mobility, C18 column
[6] = diastereomer of slower mobility
[7] = diastereomer of higher mobility

Row | SMILES | IC50 [1, 5] [µM] | IC50 ([1]; diastereomer of slower mobility, C18 column) [µM] | IC50 [2, 5] [µM] | IC50 [2, 6] [µM] | IC50 [3, 7] [µM] | IC50 [3, 6] [µM] | IC50 ([4]; diastereomer of higher mobility on C18 column) [µM] | IC50 [4, 6] [µM] | IC50 [1, 7] [µM] | IC50 [1, 6] [µM]
1 | CC(C)CC(CC(=O)NO)C(=O)N[C@@H](Cc1c[nH]c2ccccc12)C(N)=O (stereo partly shown) | < 0.0001 | 0.5 | 0.0025 | 2.2 | – | – | – | – | – | –
2 | COc1ccc(C[C@H](NC(=O)C(CC(=O)NO)CC(C)C)C(=O)N[C@@H](C)C(N)=O)cc1OC (stereo partly shown) | – | – | – | – | 0.03 to 0.1 | 1 to 3 | 0.01 | 2.8 | 0.004 | 1.3
